These results are taken from patent US5087614A, “Enzyme inhibitor and method of producing the same” (Suntory Limited, priority 1987, dated 1992).

By UniProt entry, the sequences of proteins in these tests, tags left out. Residues count along the entry.
UniProt P00792, 43-372 limits assumed: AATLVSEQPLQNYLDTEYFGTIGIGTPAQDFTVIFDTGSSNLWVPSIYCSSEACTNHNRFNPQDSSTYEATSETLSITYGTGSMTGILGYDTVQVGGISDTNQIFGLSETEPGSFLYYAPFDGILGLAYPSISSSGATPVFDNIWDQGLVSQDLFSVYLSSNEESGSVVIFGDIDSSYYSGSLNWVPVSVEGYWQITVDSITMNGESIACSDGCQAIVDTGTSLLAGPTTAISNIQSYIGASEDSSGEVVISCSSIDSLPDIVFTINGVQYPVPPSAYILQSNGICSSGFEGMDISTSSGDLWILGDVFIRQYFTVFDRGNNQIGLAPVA

The nature of data set [1]: Solubility in solvents (physicochemical properties).
For a further data set, the target named is Pepsin (Bos taurus, UniProt P00792). The experiment in a line: Inhibition against pepsin (hemoglobin degradation, UV absorption at 280 nm). The following applies: read-out: IC50 (concentration of the compound required to achieve 50% inhibition); substrate 2.0% hemoglobin in 0.06N-hydrochloric acid, 35° C., 10 minutes.

Molecules are shown by their SMILES.

As to `CC(=O)[C@H](CC(C)C)NC(=O)[C@H](C)NC(=O)C[C@H](O)[C@H](CC(C)C)NC(=O)[C@@H](NC(=O)[C@@H](NC(=O)C(C)C(=O)O)C(C)C)C(C)C` (some centres unmarked), in data set [1], the Solubility in butanol result is recorded as “soluble”; the “Solubility in methanol, ethanol and dimethyl sulfoxide” value (shortened to “Solubility in methanol”) is “easily soluble”; the “Solubility in water, benzene, ether, petroleum ether, chloroform, carbon tetrachloride, hexane and ethyl acetate” value (“Solubility in water, benzene, ether” below) is recorded as “sparingly soluble”. For the same compound, the IC50 on Pepsin is 26 nM.
The matching figures for `CC(C)C[C@H](NC(=O)[C@H](C)NC(=O)C[C@H](O)[C@H](CC(C)C)NC(=O)[C@@H](NC(=O)[C@@H](NC(=O)C(C)C(=O)O)C(C)C)C(C)C)[C@@H](O)CC(=O)O` (some centres unmarked): “soluble”, “easily soluble”, “sparingly soluble” and 14.3 nM.
Take `COC(=O)C[C@H](O)[C@H](CC(C)C)NC(=O)[C@H](C)NC(=O)C[C@H](O)[C@H](CC(C)C)NC(=O)[C@@H](NC(=O)[C@@H](NC(=O)C(C)C(=O)O)C(C)C)C(C)C` (some centres unmarked): in data set [1], the Solubility in butanol entry is on record as “soluble”; the “Solubility in methanol” value is listed as “easily soluble”; the “Solubility in water, benzene, ether” value was “sparingly soluble”. The IC50 on Pepsin turned out to be 22.4 nM.
With `COC(=O)C(C)C(=O)N[C@H](C(=O)N[C@H](C(=O)N[C@@H](CC(C)C)[C@@H](O)CC(=O)N[C@@H](C)C(=O)N[C@@H](CC(C)C)C(C)=O)C(C)C)C(C)C` (some centres unmarked), in data set [1], the Solubility in butanol entry is “soluble”; the “Solubility in methanol” value is “easily soluble”; the “Solubility in water, benzene, ether” value is listed as “sparingly soluble”. Also, the IC50 at Pepsin was 25.4 nM.
The matching figures for `CC(C)C[C@H](NC(=O)[C@H](C)NC(=O)C[C@H](O)[C@H](CC(C)C)NC(=O)[C@H](C)NC(=O)C[C@H](O)[C@H](CC(C)C)NC(=O)[C@@H](NC(=O)[C@@H](NC(=O)C(C)C(=O)O)C(C)C)C(C)C)[C@@H](O)CC(=O)O` (some centres unmarked): “soluble”, “easily soluble”, “sparingly soluble” and 29.1 nM.
